Source: patent US9301963B2, “Treatment tool and method of gradual withdrawal from bezodiazepine dependency” (priority 2011, dated 2016)

Test system: benzodiazepine-dependent patient
Test: Step taper method (comparison, FIG. 3)
Details: starting dose 14.0 mg, line 320

SMILES: CN1C(=O)CN=C(c2ccccc2)c2cc(Cl)ccc21 [Diazepam]
- withdrawal symptoms after sharp dosage drops (steps): always accompanied by hard-to-endure benzodiazepine withdrawal symptoms
